# GALK inhibitor – blocks human galactokinase activity. P51570. Purified GALK, Kinase-Glo residual ATP luminescence. Potency, µM (doses to about 57.5 µM), inactives show top-dose activity change, negative = inhibition, usual class: inhibitors. 0.007% of 270,000 active. AID 1868; further: potency means the concentration at half of the fitted maximal effect; on the % scale 0 is the no-effect control and ±100 the full control effect
#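 Kinase-Glo Plus luminescence measured ATP left after a 1 h room-temperature reaction. The reaction used 5 nM GALK, 100 uM galactose and 35 uM ATP at pH 8.0 (20 mM HEPES, 5 mM MgCl2, 60 mM NaCl, 1 mM DTT, 0.01% BSA).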
# miR-21 reporter – miR-21 reporter, rising signal. HeLa miR-21 FLuc reporter, luciferase, 48 h. Potency, µM (highest dose often 38.3 µM), for the others: at the highest dose reporter change, positive = more light. 340,000 tested, under 10 active. AID 2288; active = well fitted rising curve with a large enough effect; inconclusive = small, poorly fitted or top-dose-only effect; inactive = no such curve, though single readings can be large or run the other way;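 further: % of control where 0% means no effect; miR-21 action dims this reporter so a rising signal means less miR-21 action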
#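 Compounds were titrated across several concentrations (up to approximately 40 uM) and incubated 48 hours with HeLa miR-21-FLuc reporter cells (miR-21 target sequence downstream of FLuc, endogenous miR-21). Readout was firefly luciferase luminescence after lytic detection reagent.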
# rTrxR1 inhibitor – inhibitors of rat thioredoxin reductase 1; O89049; recombinant rTrxR1, NADPH fluorescence consumption, selenite substrate; Potency, µM (titrated, usually from 114 µM), for inactives: at the top dose activity change, negative = inhibition, usual class: inhibitors; 1% of 390,000 active; AID 588453; further: potency means the concentration at half of the fitted maximal effect; on the % scale 0 is the no-effect control and ±100 the full control effect; nearly all actives have a fitted effect of over 65% in size
#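 Rat TrxR1 (90 nM in the dispensed reagent) was pre-reduced with 400 uM NADPH for 5 min at room temperature, then incubated with compound for 15 min. After 400 uM selenite was added, NADPH fluorescence (Ex 340/Em 450 nm) was followed for 8 min.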
# PINK1 expr mod – PINK1 expression modulation; AID 624263; PINK1 immunofluorescence, high-content cytometry, 24 h; 0.2% of 410,000 active; Potency, µM (top dose mostly 76.6 µM), without a hit: at the highest dose activation (PINK1 increase), actives largely listed as activators; active means well fitted activation curve with a large enough effect; inconclusive means small, poorly fitted or top-dose-only effect; cell line not stated here; further: potency means the concentration at half of the fitted maximal effect; % of control where 0% means no effect; nearly all actives have a fitted effect of over 65% in size
#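 Compound titrations (5 concentrations, 24 h) on a stable cell line; DMSO and CCCP controls. Endpoint: fixed-cell PINK1 immunofluorescence with mitochondrial, cell and nuclear markers, scanned by microplate cytometer.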
# TrxR1 substrate – rat thioredoxin reductase 1 substrate activity | O89049 | purified TrxR1 substrate turnover, NADPH consumption readout | Potency, µM (doses to about 114 µM), for the others: at the highest dose activity change, negative = substrate turnover | 0.01% of 390,000 active | AID 588456; further: potency means the concentration at half of the fitted maximal effect; on the % scale 0 is the no-effect control and ±100 the full control effect; nearly all actives have a fitted effect of over 50% in size
#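 Rat TrxR1, dispensed at 90 nM, was prereduced with 400 uM NADPH (final) for 5 min at ~22 deg C, then incubated with compound 15 min before 400 uM selenite. A first-read NADPH fluorescence drop versus no-compound background flagged substrates.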
# An asterisk follows results filed as active; u = inconclusive; x = no result; [ ] = dose if it differs, or a comment. Hits are enriched below; roughly 1.1% of the tested compounds scored in any of these assays. Unless noted, the call rests on the fitted dose curve; in most records, active means well fitted curve in the direction sought with a large enough effect; inconclusive means small, poorly fitted or top-dose-only effect, or another doubt; inactive means no such curve, though single readings can be large; an effect the other way counts as inactive or inconclusive.
SMILES,GALK inhibitor,miR-21 reporter,rTrxR1 inhibitor,PINK1 expr mod,TrxR1 substrate
Cc1c(Cl)cccc1NC(=O)CCCn1nc(C)c2sc3ccccc3c2c1=O,x,-12.9%,11.9%,-0.2%,13.4%
NC(=S)n1[nH]c(-c2ccc([N+](=O)[O-])cc2)c(N=Nc2ccc(O)cc2)c1=O,1.4%,-3.7%,-16.6%,0.6%,-10.9%
NC(=S)n1[nH]c(-c2ccc([N+](=O)[O-])cc2)c(N=Nc2cccc(Cl)c2)c1=O,13.8%,3.6%,-5.0%[57.1 µM],12.6µM*,-6.4%[57.1 µM]
CC(C)(C)c1ccc(C(=O)C[n+]2ccc(Cl)c3ccc(Cl)cc32)cc1,x,x,6.0%,x,7.7%
O=C(OCc1ccc([N+](=O)[O-])cc1Cl)c1cnccn1,-3.2%,-4.5%,22.4µM*,-0.6%,4.7%
O=C(OCc1cccc([N+](=O)[O-])c1)c1cnccn1,-3.2%,0.8%,7.3%,-0.2%,-0.9%
COc1ccc(-c2c(C)c3ccc(O)c(CN4CCCC4)c3oc2=O)cc1,x,-23.1%,-2.9%[57.1 µM],0.5%,274.4%[57.1 µM]
Cc1ccc(CNC(=O)CC(C)S(=O)(=O)c2ccc3c(c2)NC(=O)CS3)o1 (stereo not drawn),0.5%,2.6%,15.8µM*,0.5%,2.7%
CCc1nnc(NS(=O)(=O)c2ccc(NC(=S)NC(=O)c3ccc(OC)c(OC)c3)cc2)s1,-0.4%,-24.7%,u,1.2%,-2.7%
CC(C)(C)C(=O)NC(=S)Nc1ccc(S(=O)(=O)Nc2nccs2)cc1,-1.5%,-3.5%,-22.0%[57.1 µM],-0.9%,1.0%[57.1 µM]
O=C(NC(=S)Nc1ccc(S(=O)(=O)Nc2nccs2)cc1)c1ccc(F)cc1,x,-16.7%,22.4µM*,-0.1%,-3.1%
CCc1nnc(NS(=O)(=O)c2ccc(NC(=S)NC(=O)/C=C/c3ccc(F)cc3)cc2)s1,-3.1%,-5.8%,50.1µM*,-0.3%,-13.2%
CCc1nnc(NS(=O)(=O)c2ccc(NC(=S)NC(=O)c3ccc(OC)cc3)cc2)s1,0.3%,-12.6%,11.2µM*,-1.5%,-10.8%
CSc1nccc(-c2cc(Cl)c3c(c2)CC(CNC(=O)c2ccc(C)nc2)O3)n1 (stereo not drawn),x,x,x,1.9%,x
Cc1ccc(-c2cc(-c3n[nH]c(=S)o3)c3ccccc3n2)cc1,-5.4%,-8.6%,u,8.6%,-11.0%
S=c1[nH]nc(-c2cc(-c3ccccn3)nc3ccccc23)o1,-6.9%,-1.9%,56.2µM*,0.3%,-7.8%
O=C1NC2CCCCC2C(=O)N1OS(=O)(=O)c1ccccc1 (stereo not drawn),x,x,3.55µM*,7.8%,-2.4%[57.1 µM]
O=C(c1ccc2c(c1)N(Cc1ccc(F)cc1)C(=O)c1ccccc1S2=O)N1CCC(Cc2ccccc2)CC1 (stereo not drawn),x,u,34.9%,-0.3%,2.5%
Cc1ccc(S(=O)(=O)/N=C2/NC(=O)/C(=C\c3cc(Br)cc(Br)c3O)S2)cc1,u,0.9%,-23.6%,2.7%,-12.2%
Cc1ccc(S(=O)(=O)/N=C2/NC(=O)/C(=C/c3ccc(Br)o3)S2)cc1,-28.4%,-11.4%,28.2µM*,-2.0%,-7.6%
O=C(C#Cc1ccccc1)c1ccco1,-6.8%,u,0.251µM*,-1.3%,-0.8%
O=C(N/N=C/c1ccccc1)c1ccco1,0.7%,-34.9%,-14.5%[57.1 µM],2.0%,-7.5%[57.1 µM]
O=C1NC(=S)S/C1=C\c1ccc(SCc2ccccc2)o1,0.0%,4.5%,25.1µM*,u,0.2%
CCC1=NN2C(=N)/C(=C\c3ccc(SCc4ccco4)o3)C(=O)N=C2S1,3.8%,-9.1%,-28.6%,1.1%,-16.6%
O=C1NC(=S)S/C1=C\c1ccc(SCc2ccco2)o1,x,-3.8%,8.91µM*,4.0%,-2.5%

# For reference, some entries already given:
SMILES,GALK inhibitor,miR-21 reporter,rTrxR1 inhibitor,PINK1 expr mod,TrxR1 substrate
CCc1nnc(NS(=O)(=O)c2ccc(NC(=S)NC(=O)/C=C/c3ccc(F)cc3)cc2)s1,-3.1%,-5.8%,50.1µM*,-0.3%,-13.2%
CCc1nnc(NS(=O)(=O)c2ccc(NC(=S)NC(=O)c3ccc(OC)cc3)cc2)s1,0.3%,-12.6%,11.2µM*,-1.5%,-10.8%

# (more compounds)
SMILES,GALK inhibitor,miR-21 reporter,rTrxR1 inhibitor,PINK1 expr mod,TrxR1 substrate
COc1ccc(-c2nn3c(-c4ccccc4C)nnc3c3ccccc23)cc1,x,-10.4%,20.7%,-0.2%,17.2%
Nc1ncnc2c1ncn2[C@@H]1O[C@H](C(=O)NC2CC2)[C@H](O)[C@H]1O,x,x,6.8%,x,x
c1ccc(-c2nc3ccccc3nc2-c2ccccn2)nc1,0.2%,1.8%,-3.9%,-1.6%[38.3 µM],-13.6%
Cc1cc2nc3c(nc2cc1C)C(O)=C3O,-1.5%,5.6%,2.51µM*,1.1%,0.7%
OC1=C(O)c2nc3ccccc3nc21,-0.5%,-2.4%,1.26µM*,-1.5%[38.3 µM],2.4%
Cc1cc2nc(-c3ccccn3)c(-c3ccccn3)nc2cc1C,8.9%,-32.0%,x,x,x
OC1=C(O)c2nc3cc(C(F)(F)F)ccc3nc21,0.3%,9.0%,2µM*,1.0%,-4.9%
Cc1c(CCOC(=O)c2cc([N+](=O)[O-])cc([N+](=O)[O-])c2)sc[n+]1CC(=O)c1ccccc1,0.0%,-13.8%,79.4µM*,-0.2%,1.0%
Cc1c(CCOC(=O)c2ccccc2)sc[n+]1CC(=O)c1ccc(Br)cc1,0.8%,-1.1%,-20.6%,4.4%,-1.5%[57.1 µM]
CCCCc1c(C)c(C#N)c2[nH]c3ccccc3n2c1=O,-1.3%,4.0%,18.3%,39.8µM*,35.3%
CCN1C(=NCCCOC(C)C)N[C@@H](CCc2ccccc2)[C@H](C(=O)NCCCOC(C)C)[C@H]1C,x,18.1%,-5.2%,22.4µM*,4.6%
COc1ccc(S(=O)(=O)c2c(SC)nn(CC(=O)Nc3ccc(C)c(Cl)c3)c2N)cc1,x,u,35.0%[57.1 µM],u,7.1%[57.1 µM]
COc1ccc(C=C(C(C)=O)C(C)=O)cc1OC,1.3%,-8.2%,44.7µM*,-1.7%,-17.0%
CCC1(C2CCN(Cc3cc4ccccc4o3)CC2)NC(=O)N(CC2COc3ccccc3O2)C1=O (stereo not drawn),x,x,x,-0.2%,x
Cc1ccccc1NC(=O)C1Cc2ccccc2CN1C(=O)c1ccco1 (stereo not drawn),7.7%,-32.6%,u,-0.3%,4.7%
CCSc1nnc(NC(=O)C2Cc3ccccc3CN2C(=O)c2ccco2)s1 (stereo not drawn),-1.4%,-16.1%,31.6µM*,1.8%,-2.1%
CCCCOc1ccccc1NC(=O)C=C(C)C,-4.6%,-2.7%,19.7%[57.1 µM],-1.2%[38.3 µM],5.1%[57.1 µM]
CCCOc1ccccc1NC(=O)/C=C/C(N)=O,4.5%,17.4%,12.6µM*,2.4%[38.3 µM],7.7%
NS(=O)(=O)c1ccc(CCNc2nc3c(-c4cccc(F)c4)nnn3c3ccc(Cl)cc23)cc1,x,-29.5%,10.3%,1.9%,10.0%
Cc1cccc(NC(=O)Cn2c(=O)n(CCC(=O)N3CCc4ccccc4C3)c(=O)c3ccccc32)c1,x,-1.7%,26.9%,0.8%,11.4%
Cc1nc2sccn2c1CN1Cc2ccccc2OC(c2ccccc2F)C1 (stereo not drawn),x,x,x,-1.1%,x
O=C1CCCC2=C1C(c1ccco1)Nc1ccc3ccccc3c12 (stereo not drawn),3.0%,-9.5%,39.8µM*,8.3%,27.2%
COc1ccc(C(=O)NC(=S)NCc2ccccc2)cc1,-1.7%,-12.5%,22.4µM*,4.1%,-7.7%
C=CCn1cc(/C=C/c2cc[n+](C)cc2)c2ccccc21,-3.1%,u,-24.9%,44.7µM*,-21.9%
Cc1ccccc1/C=C/c1cc[n+](C)cc1,-0.6%,4.0%,-4.4%,2.2%,-7.2%

# Four compounds already listed, arranged by heavy-atom count, lowest first.
SMILES,GALK inhibitor,miR-21 reporter,rTrxR1 inhibitor,PINK1 expr mod,TrxR1 substrate
OC1=C(O)c2nc3ccccc3nc21,-0.5%,-2.4%,1.26µM*,-1.5%[38.3 µM],2.4%
CCCOc1ccccc1NC(=O)/C=C/C(N)=O,4.5%,17.4%,12.6µM*,2.4%[38.3 µM],7.7%
Cc1c(CCOC(=O)c2ccccc2)sc[n+]1CC(=O)c1ccc(Br)cc1,0.8%,-1.1%,-20.6%,4.4%,-1.5%[57.1 µM]
CCSc1nnc(NC(=O)C2Cc3ccccc3CN2C(=O)c2ccco2)s1 (stereo not drawn),-1.4%,-16.1%,31.6µM*,1.8%,-2.1%

# Screens deposited in PubChem BioAssay by National Center for Advancing Translational Sciences (NCATS).
